The values below are quoted from earlier work in patent publication US20100028387A1, “Biocompatible Coated Nanostructured Titanium Surfaces” (priority 2007, published 2010).

The series has as its system bone induction. The note with it: Bessho, et al., 1999.

B1: rhBMP 2: recombinant human (rh) BMP 2, bone morphogenetic protein (protein, UniProt P12643 283-396, looked up)
Bone morphogenetic protein 2: QAKHKQRKRLKSSCKRHPLYVDFSDVGWNDWIVAPPGYHAFYCHGECPFPLADHLNSTNHAIVQTLVNSVNSKIPKACCVPTELSAISMLYLDENEKVVLKNYQDMVVEGCGCR
With B1, the “activity relative to purified human BMP 2” value is “one-tenth”. Further, the “amount of rhBMP 2 necessary to produce bone induction in vivo” value (collagen carrier) is reported as 0.7-17 μg of BMP per mg of a collagen carrier.
